The results in this text go back to PMC6130710 (Pharmaceutical Biology, 2017).

Sequences of proteins named here, by UniProt entry; tags and fusion partners are left off. Residues count along the entry.
UniProt P23739, 1014-1841 limits assumed: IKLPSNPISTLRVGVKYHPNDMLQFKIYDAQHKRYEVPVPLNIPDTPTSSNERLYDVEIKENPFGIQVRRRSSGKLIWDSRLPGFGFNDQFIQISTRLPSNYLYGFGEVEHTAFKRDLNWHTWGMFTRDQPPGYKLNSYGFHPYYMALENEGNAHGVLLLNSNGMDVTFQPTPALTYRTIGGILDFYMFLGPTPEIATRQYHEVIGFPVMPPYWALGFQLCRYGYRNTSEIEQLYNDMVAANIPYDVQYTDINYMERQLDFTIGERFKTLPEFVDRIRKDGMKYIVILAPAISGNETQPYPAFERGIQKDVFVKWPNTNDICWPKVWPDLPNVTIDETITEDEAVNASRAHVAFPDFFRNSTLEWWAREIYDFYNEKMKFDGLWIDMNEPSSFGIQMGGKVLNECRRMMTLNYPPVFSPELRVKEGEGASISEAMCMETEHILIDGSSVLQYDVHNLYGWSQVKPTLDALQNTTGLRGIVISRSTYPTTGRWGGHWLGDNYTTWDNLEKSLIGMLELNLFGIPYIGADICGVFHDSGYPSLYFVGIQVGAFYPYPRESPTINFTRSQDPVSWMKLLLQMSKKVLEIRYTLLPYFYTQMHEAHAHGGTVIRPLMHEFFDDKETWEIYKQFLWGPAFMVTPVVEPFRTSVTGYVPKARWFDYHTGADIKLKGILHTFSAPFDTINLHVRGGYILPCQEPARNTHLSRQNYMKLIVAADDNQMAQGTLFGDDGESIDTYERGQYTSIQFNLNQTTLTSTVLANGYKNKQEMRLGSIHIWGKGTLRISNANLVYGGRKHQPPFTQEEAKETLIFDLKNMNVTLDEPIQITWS
UniProt P23739, 1-1013 partner limits assumed: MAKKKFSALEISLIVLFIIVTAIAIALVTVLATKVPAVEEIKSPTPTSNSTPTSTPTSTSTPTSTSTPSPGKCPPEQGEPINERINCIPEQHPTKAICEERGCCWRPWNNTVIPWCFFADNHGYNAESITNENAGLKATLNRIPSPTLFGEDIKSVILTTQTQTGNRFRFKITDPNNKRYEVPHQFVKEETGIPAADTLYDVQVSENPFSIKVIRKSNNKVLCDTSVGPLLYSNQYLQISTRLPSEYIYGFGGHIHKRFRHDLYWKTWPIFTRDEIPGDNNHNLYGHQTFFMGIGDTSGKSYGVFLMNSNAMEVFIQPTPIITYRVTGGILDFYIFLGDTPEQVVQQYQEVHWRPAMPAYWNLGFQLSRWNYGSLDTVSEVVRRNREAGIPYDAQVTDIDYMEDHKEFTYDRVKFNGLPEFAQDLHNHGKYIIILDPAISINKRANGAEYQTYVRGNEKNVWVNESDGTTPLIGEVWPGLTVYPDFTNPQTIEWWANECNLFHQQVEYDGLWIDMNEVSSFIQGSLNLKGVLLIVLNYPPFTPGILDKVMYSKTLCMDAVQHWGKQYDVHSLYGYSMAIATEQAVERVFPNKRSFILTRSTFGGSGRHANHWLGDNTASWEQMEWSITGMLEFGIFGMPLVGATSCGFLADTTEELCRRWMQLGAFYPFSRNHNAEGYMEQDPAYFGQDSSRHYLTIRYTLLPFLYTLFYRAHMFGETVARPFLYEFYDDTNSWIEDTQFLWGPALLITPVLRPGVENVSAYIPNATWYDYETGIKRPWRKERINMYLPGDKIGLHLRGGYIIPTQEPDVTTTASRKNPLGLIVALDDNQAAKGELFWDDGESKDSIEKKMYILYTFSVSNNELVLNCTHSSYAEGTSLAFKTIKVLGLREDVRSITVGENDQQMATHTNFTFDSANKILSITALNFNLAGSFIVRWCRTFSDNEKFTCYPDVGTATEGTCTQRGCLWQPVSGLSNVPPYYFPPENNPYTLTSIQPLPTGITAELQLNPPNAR

The target in this experiment is T1, rat intestinal α-glucosidase (sucrase) (Rattus norvegicus, UniProt P23739).
T1 construct: tissue Sigma Aldrich; host or cells: rat intestinal acetone powder
The experiment in a line: rat intestinal α-glucosidase (sucrase) inhibition assay. As to conditions: rat intestine. The experiment is classed as biochemical. How it is done: 1 D and 2 D NMR spectra were recorded on a Bruker 400 AVANCE spectrometer, and the chemical shifts were reported in parts per million (ppm) using tetramethylsilane (TMS) as the internal standard. Melting points were determined on a Fisher-Johns Melting Point apparatus. Adsorbents such as silica gel 60 (Merck) were used for column and radial (chromatotron model 7924 T, Harrison Research) chromatographies. Merck silica gel 60F254 plates were used for TLC. HRESIMS spectra were obtained using a Bruker MICROTOF model mass spectrometer. UV-visible absorption spectra were recorded using a UV-2550 (SHIMADZU) UV-Vis spectrometer (Shimadzu, Kyoto, Japan). α-Glucosidase (EC 3.2.1.20) from Saccharomyces cerevisiae and 4-nitrophenyl-α-D-glucopyranoside (p-NPG) were obtained from Sigma-Aldrich (St. Louis, MO). Acarbose was obtained from Bayer Vitol Leverkusen, Germany. Rat intestinal acetone powder was supplied by Sigma Aldrich.
Moreover, previous procedure (Damsud et al. [2013]) was also applied to determine inhibitory activity of isolated compounds against intestinal α-glucosidases (maltase and sucrase). […] The absorbance of final product was determined at 503 nm, and percent inhibition was calculated using the aforementioned equation.

Usually IC50 stands for the concentration at which inhibition is half-maximal. The low end stands for inhibition by little substance, the high end for a need for much substance. In the case of `C[C@H]1O[C@H](O[C@H]2[C@H](O)[C@@H](O)[C@@H](O[C@H]3[C@H](O)[C@@H](O)C(O)O[C@@H]3CO)O[C@@H]2CO)[C@H](O)[C@@H](O)[C@@H]1N[C@H]1C=C(CO)[C@@H](O)[C@H](O)[C@H]1O` (some centres unmarked) [Acarbose, reference compound], the IC50 is 10.9 ± 2.36 µM (compounds, Table 2) and 11 µM (fractions A-G, Table 1).
